US6462178B1, “G protein” (Yong Hou Wong, priority 1999, dated 2002)

By UniProt entry, the sequences of proteins in these tests, tags left out. Residues count along the entry.
UniProt P22888, 27-699, species assumed: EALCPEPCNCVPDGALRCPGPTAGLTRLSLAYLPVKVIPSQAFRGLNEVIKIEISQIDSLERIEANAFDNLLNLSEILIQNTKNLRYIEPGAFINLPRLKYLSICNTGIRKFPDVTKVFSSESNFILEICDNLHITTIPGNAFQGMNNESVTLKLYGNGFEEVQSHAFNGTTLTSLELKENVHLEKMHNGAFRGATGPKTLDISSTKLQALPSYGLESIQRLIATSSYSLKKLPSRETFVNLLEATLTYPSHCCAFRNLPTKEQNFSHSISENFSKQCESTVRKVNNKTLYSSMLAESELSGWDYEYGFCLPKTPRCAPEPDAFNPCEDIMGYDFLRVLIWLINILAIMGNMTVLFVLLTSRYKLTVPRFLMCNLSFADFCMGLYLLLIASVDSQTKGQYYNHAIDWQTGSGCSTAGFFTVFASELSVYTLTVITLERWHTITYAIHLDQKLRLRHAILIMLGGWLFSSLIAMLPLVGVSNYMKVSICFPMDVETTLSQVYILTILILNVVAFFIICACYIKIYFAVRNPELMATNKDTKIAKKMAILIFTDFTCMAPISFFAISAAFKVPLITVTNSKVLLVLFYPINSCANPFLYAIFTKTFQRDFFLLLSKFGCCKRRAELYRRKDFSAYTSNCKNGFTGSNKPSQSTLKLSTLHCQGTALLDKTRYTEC

What was measured:
μ-opioid receptor = target: T1, μ-opioid receptor (Homo sapiens, UniProt P35372); experiment: IP accumulation, μ-opioid receptor coexpressed with Gα subunit in COS-7; type: cell-based; details: 100 nM DAGO; for IP Formation % Res.: relative to basal
T1 construct: expressed in transfected cells; host or cells: COS-7

[1] = target: T2, luteinizing hormone receptor (LHR) (Homo sapiens, UniProt P22888); details: cited from earlier work
T2 construct: expressed in transfected cells; host or cells: COS-7

[2] = COS-7, receptor + 16z25 chimera
[3] = COS-7, receptor + 16z44 chimera

Substance | IP Formation Agonist (μ-opioid receptor; [2]) | IP Formation % Res. (μ-opioid receptor; [2]) [%] | IP Formation Agonist (μ-opioid receptor; [3]) | IP Formation % Res. (μ-opioid receptor; [3]) [%] | IP Formation Agonist (μ-opioid receptor; COS-7, receptor + Gα16) | IP Formation % Res. (μ-opioid receptor; COS-7, receptor + Gα16) [%] | stimulation of PLC ([1]; COS-7, luteinizing hormone receptor + Gα16, 1 μg/ml) [fold] | IP Formation Agonist ([1]; COS-7, receptor + Gα16, 1 μg/ml hCG) | IP Formation % Res. ([1]; COS-7, receptor + Gα16, 1 μg/ml hCG, relative to basal) [a %]
[D-Ala^2,N-Me-Phe^4,Gly^5-ol]enkephalin [DAGO] | 74.0 ± 3.7 | 224 | 68.5 ± 8.7 | 269 | 16.0 ± 0.8 | 134 | – | – | –
hCG: human choriogonadotropin, agonist of the luteinizing hormone receptor | – | – | – | – | – | – | 3 | 30.6 ± 1.2 | 300
